The record followed here is ChEMBL document CHEMBL5104090, “Recent advances in the medicinal chemistry of carbonic anhydrase inhibitors” (Eur J Med Chem, 2021).

The target of assay [1] is T1, Carbonic anhydrase 9 (Homo sapiens, UniProt Q16790).
The target of assay [2] is T1, Carbonic anhydrase 9. This is another data set of the same source.

`Cc1cccc(C)c1[SeH]` returned an inhibition constant (Ki) in assay [1] of 0.18 µM.

Consider `Cc1ccccc1[SeH]`, for which the affinity in assay [1], expressed as Ki, was 0.2 µM. On the same count and under the same terms, the figure for `COc1ccccc1[SeH]` is 0.2 µM.

With `NS(=O)(=O)c1ccc(C(=O)N[C@@H]2O[C@H](CO)[C@H](O)[C@H](O)[C@H]2O)cc1`, the IC50 in assay [2] worked out at 0.65 µM. On the same count and under the same terms, the figure for `NS(=O)(=O)c1ccc(C(=O)N[C@@H]2O[C@H](CO)[C@@H](O)[C@H](O)[C@H]2O)cc1` is 0.65 µM.
